Values quoted from earlier work in PMC3426300.
pKd: −log10 of the molar value.

The chains behind the UniProt entries cited, without tags or fusion partners. Residues count along the entry.
UniProt Q00987, 25-109: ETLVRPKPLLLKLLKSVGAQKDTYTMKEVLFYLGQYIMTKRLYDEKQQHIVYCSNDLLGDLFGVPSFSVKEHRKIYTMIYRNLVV

Target: MDM2 25-109 (Homo sapiens) (UniProt Q00987)

DPMI-γ
pKd: 7.28
